Patent US9328124B2, “BACE inhibitors” (Eli Lilly and Company, priority 2012, dated 2016)
Structures can show the parent of a compound that is named as a salt.

Amino acid sequences for entries named in this document (tags omitted). Residues count along the entry.
UniProt P56817, 22-460: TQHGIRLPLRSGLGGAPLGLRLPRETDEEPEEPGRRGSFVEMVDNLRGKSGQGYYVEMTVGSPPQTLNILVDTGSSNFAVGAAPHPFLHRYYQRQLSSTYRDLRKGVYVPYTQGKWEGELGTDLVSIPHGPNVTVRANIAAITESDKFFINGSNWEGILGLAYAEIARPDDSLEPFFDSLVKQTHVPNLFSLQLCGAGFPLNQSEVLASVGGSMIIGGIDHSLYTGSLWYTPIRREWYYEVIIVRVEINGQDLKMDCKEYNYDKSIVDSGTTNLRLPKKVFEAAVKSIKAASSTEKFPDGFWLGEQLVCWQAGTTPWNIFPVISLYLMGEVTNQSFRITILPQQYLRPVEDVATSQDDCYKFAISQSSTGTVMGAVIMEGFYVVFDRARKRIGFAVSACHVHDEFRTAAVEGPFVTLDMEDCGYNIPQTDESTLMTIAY

Target: human BACE1(1-460):Fc (Homo sapiens (Human), UniProt P56817)
Assay: BACE1 FRET assay
Assay type: biochemical
Conditions: purified recombinant human BACE1, FRET; Mean ± SEM
Method: For in vitro enzymatic and cellular assays, test compounds are prepared in DMSO to make up a 10 mM stock solution. The stock solution is serially diluted in DMSO to obtain a ten-point dilution curve with final compound concentrations ranging from […] to 1 nM in a 96-well round-bottom plate before conducting the in vitro enzymatic and whole cell assays.
Human BACE1 (accession number: AF190725) is cloned from total brain cDNA by room temperature-PCR. The nucleotide sequences corresponding to amino acid sequences #1 to 460 are inserted into the cDNA encoding human IgG1(Fc) polypeptide (Vassar et al. 1999). This fusion protein of BACE1(1-460) and human Fc, named huBACE1:Fc, is constructed into the pJB02 vector. Human BACE1(1-460):Fc (huBACE1:Fc) is transiently expressed in HEK293 cells. 250 μg cDNA of each construct is mixed with Fugene 6 and added to 1 liter HEK293 cells. Four days after the transfection, conditioned media are harvested for purification. huBACE1:Fc is purified by Protein A chromatography. The enzyme is stored at −80° C. in small aliquots.
Serial dilutions of test compounds are prepared as described above. […] The RFU of the mixture at time 0 is recorded at excitation wavelength 355 nm and emission wavelength 460 nm, after brief mixing on a plate shaker. […] The RFU at the end of incubation is recorded with the same excitation and emission settings used at time 0. […]

- IC50: 0.0734 µM
SMILES: CC(C)(O)c1nc(N2C[C@H]3CSC(N)=N[C@@]3(c3ccc(F)cn3)C2)ncc1F [Example 12, 2-[2-[(4aR,7aR)-2-Amino-7a-(5-fluoro-2-pyridyl)-4,4a,5,7-tetrahydropyrrolo[3,4-d][1,3]thiazin-6-yl]-5-fluoro-pyrimidin-4-yl]propan-2-ol hydrochloride]
